Ab-14 heavy chain CDR variants: yeast mating affinities

The measurements come from Li et al. 2023 (doi:10.1038/s41467-023-39022-2) through the FLAb antibody collection.

The target is the same throughout: PDVDLGDISGINAS, from the HR2 region of SARS-CoV-2 spike.

Each scFv is VH, the linker GGGGSGGGGSGGGGS, VL, as in the parent Ab-14, and differs from it in the CDRs of the heavy chain only.
VH: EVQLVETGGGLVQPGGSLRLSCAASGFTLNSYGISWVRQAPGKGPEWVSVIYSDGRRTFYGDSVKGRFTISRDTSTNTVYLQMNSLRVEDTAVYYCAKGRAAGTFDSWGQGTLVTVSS
VL: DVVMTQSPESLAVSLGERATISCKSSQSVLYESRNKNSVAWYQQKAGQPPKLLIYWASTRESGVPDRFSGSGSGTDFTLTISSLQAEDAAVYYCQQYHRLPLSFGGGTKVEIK

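The starting antibody came from a phage panning campaign against this peptide. This is the validation round: designs drawn from the data on random variants, tested in the same kind of assay. Group labels follow the data file (Ctrl: baseline library sampled from a position-specific scoring matrix, with some repeated check sequences; Rand: our label for a block that the file lists under HC and that is probably the random mutants of the ten best first-round binders; En: ensemble of fine-tuned language models; GP: Gaussian process model; GPLM: also part of the Gaussian process libraries; HC: hill climbing; Gen: genetic algorithm; Gibbs: Gibbs sampling; a sequence that several methods proposed may carry one label only). Affinity was read by AlphaSeq, a pooled yeast mating assay with surface-displayed partners. After mating in shaken culture at 30 °C for 16 h, diploids were selected and their barcode pairs sequenced. A regression on co-assayed BCL2-family reference pairs converts the normalised counts of each replicate to an apparent Kd. There are six technical replicates.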

Variants are written as CDR1, CDR2 and CDR3 of the heavy chain (limits as in the source). Parent: GFTLNSYGIS, VIYSDGRRTFYGDSVK, GRAAGTFDS. This list holds designs with at most six substitutions. Affinities are written as log10 Kd with Kd in nM; a lower number is a better binder. Replicates are averaged; those with no signal do not enter the mean. Where no diploid with the target was found in any replicate, the entry reads "nd": below detection, most likely a poor binder, though not proof of it. A sequence measured in both rounds can read differently, since the two assays cover different ranges. The parent sequence was in this pool as ten entries: three were never detected, three once, and four in most replicates, with averages from 0.34 to 2.37. Nonspecific signal, from three strains lacking the peptide, appeared in 1% of pairings of all heavy chain designs, centred on 2.08 (5% of these signals below 0.84); values are not corrected for it. The authors' rule: three or more of the six replicates give a measured affinity, fewer mean a poor binder. Where one sequence has several entries in the source, the replicates are pooled.

For GFNLNSYGIS | VIYSDGHRTFYGDNVK | GRAAGTFDS [Ctrl], the assay gave 1.96 (6 of 6 replicates). The variant GFTLESYGIS | VIYSDGKRTFYSDSVK | GRAGGTFDS [GP_HC] showed 2.06 (6 of 6 replicates). The variant GFSLLSYGIS | VIYSDGRRTFYGDSVK | GRAAGLFDS [Ctrl] showed 3.02 (1 of 6 replicates). The variant GFTLESYGIS | VIYSDGQRTFYADSVK | GRVAGTFDS [GP_Gibbs] gave 0.17 (6 of 6 replicates). For GFTLNSYGIS | VIYSDGRRTFYDDSVK | GLTAGTFDS [GP_HC], the assay gave 0.16 (6 of 6 replicates).

The variant GETINSYGIS | VIYSDGRRTFYLDSVK | GFAAGTWDS [Ctrl] gave nd (0 of 6 replicates). The variant GFSLNSYGIS | VIYSDGRRTFYVDSVK | GQTAGTFDS [GPLM_Gen] showed 0.73 (6 of 6 replicates). With GFTLNSYGIS | VIYSDGRRTFYGDSTK | GRRAGTFRS [Ctrl] the result was nd (0 of 6 replicates). For GFTLNLYGIS | VIYSDGRRTFYGDSVK | GRAAGKFDS [Ctrl], the assay gave nd (0 of 6 replicates). For GFDLNSYGIS | VIYSDGRRTFYGDNVK | GRTAGTFDS [GP_Gen], the assay gave 0.42 (6 of 6 replicates).

With GFQLNSYGIS | VIYSDGRRTFYADNVK | GQEAGTFDS [GP_Gibbs] the result was nd (0 of 6 replicates). The variant GFQLNSYGIS | VIYSDGRRTFYADSVK | GRNAGTFDS [GP_Gen] showed 1.47 (4 of 6 replicates). The variant GFHLNSYGIS | VIYADGRRTFYGDSVK | GKAAGTFDS [GPLM_Gen] gave 0.42 (6 of 6 replicates). The variant GFGLNSYGYS | VIYSDGRRTFYGDSVK | GRAAGRFDS [Ctrl] gave nd (0 of 6 replicates). With GFTLESYGIS | VIYSDGRRTFYGDSVK | GRAAGTFTS [GP_HC] the result was nd (0 of 6 replicates).

The variant GFDLNEYGIS | VIYSDGRRTFYLDSVK | GFAAGTFDS [Ctrl] showed 0.68 (6 of 6 replicates). The variant GFTLNSYGIS | VIYSDGRRTFYSDSVK | GVAVGTFDS [GP_HC] gave nd (0 of 6 replicates). With GFNLNSYGIS | VIYSDGRRTFYQDRVK | GEAAGTFDS [GP_Gibbs] the result was 1.92 (6 of 6 replicates). The variant GFTLESYGIS | VIYSDGRRTFYGDCVK | GRAAGTFDS [Ctrl] showed nd (0 of 6 replicates). For GFTLNSYGIS | VIYSDGRRTFYTDSVK | GRAAGTFDS [Ctrl], the assay gave 0.52 (1 of 6 replicates).

With GFSLNDYGIS | VIYSDGRRTAYGDSVK | GRAAGTFDL [Ctrl] the result was -0.09 (6 of 6 replicates). With GFTLNDYGIS | VIYSDGRRTMYGDSVK | GRNAGTFDS [GP_HC] the result was 0.56 (5 of 6 replicates). The variant GFTLNSYGIS | VIYSDWRRTFYSDSVK | GRAAGTFDL [Ctrl] gave 2.50 (1 of 6 replicates). The variant GFTLNDYGIS | VIYSDGRRTFYADSVK | GRAAGTFIS [GPLM_HC] showed nd (0 of 6 replicates). For GFNLNSYGIS | VIYSDGRRTFYADSVK | GREAGTFDS [GPLM_Gen], the assay gave 0.13 (6 of 6 replicates).

The variant GFLLNSYGIS | VIYSDGRRTFYADSVK | GKEAGTFDT [GP_Gibbs] gave 0.65 (3 of 6 replicates). With GFTLESYGIS | VIYSDGRRTFYGDSVK | GKIAGTFDS [GP_Gen] the result was 0.81 (6 of 6 replicates). For GFTLNSYGIS | VIYSDGRRTFYGDSVK | GREAGTFDG [Ctrl], the assay gave 0.45 (1 of 6 replicates). The variant GFELNEYGIS | VIYSDGRRTMYGDSVK | GRCAGTFDS [GP_HC] gave 1.65 (2 of 6 replicates). The variant GFTLNDYGIS | VIYSDGRRTFYGDGVK | GRANLTFIS [Rand] showed nd (0 of 6 replicates).

The variant GFELNEYGIS | VIYSDGRRTFYGDSVK | GRQAGTFDK [GP_Gen] gave 0.26 (6 of 6 replicates). The variant GFDLNSYGIS | VIYSDGRRTFYSDMVK | GEAAGTFDS [GP_Gen] gave 0.85 (5 of 6 replicates). The variant GFDLNEYGIS | VIYADGRRTFYADSVK | GKAAGTFDL [En_HC] gave -0.47 (6 of 6 replicates). The variant GFTLNSYGIS | VIYADGRRTFYGDSVK | GRAAGTFDK [Ctrl+GPLM_Gen] gave 0.17 (12 of 12 replicates). For GFTLNSYGIS | VIYADGRRTFYGDSTK | GRAAGTNKS [Rand], the assay gave 2.51 (1 of 6 replicates).

For GFNLNSYGIS | VIYSDGRRTFYGDSVK | GYAAGTFDS [Ctrl], the assay gave 1.35 (6 of 6 replicates). The variant GFTLNDYGIS | VIYSDGRRTFYHDSVK | GRAAGTFIS [GPLM_HC] showed nd (0 of 6 replicates). With GEALNSYGIS | VIYSDGRRTFYGPSVK | QRAAGTFDS [Ctrl] the result was nd (0 of 6 replicates). The variant GFELNEYGIS | VIYSDGRRTFYGDSVK | GRAAVTFDS [GP_HC] gave nd (0 of 6 replicates). The variant GFTLNSYSIS | VIYSDGRRTFYRDSVK | GRAAGTFKS [Ctrl] gave 1.63 (1 of 6 replicates).

For GFELNEYGIS | VIYSDGRRTFYGDSVK | GKTAGTFDK [GP_Gen], the assay gave -0.09 (6 of 6 replicates). With GFELNSYGIS | VIYSDGRRTFYADSVK | GKAAGTFDA [GPLM_Gibbs] the result was -0.14 (6 of 6 replicates). The variant GFTLNSYGIS | VIYSDGRRTFYYDSVK | GRAAGTFDC [Ctrl] showed nd (0 of 6 replicates). For KFTRNSYGIS | VIYSDGRRTFYGDSVK | GRAAWTFDS [Ctrl], the assay gave 3.47 (1 of 6 replicates). With GFSLNEYGIS | VIYSDGRRTFYGDSVK | GRTAGTFDR [GPLM_Gen] the result was 2.05 (6 of 6 replicates).

The variant GFTLNSYGIS | VIYSDGRRTFYGDSVK | GHEAGTFDS [GPLM_Gibbs] showed 0.09 (6 of 6 replicates). The variant GFTLNSYGIS | VIYSDGRRTFYGDSVK | GYAAGTFVS [Ctrl] showed 2.93 (1 of 6 replicates). The variant GFTLNSYGIS | VIYADGRRTFYGDSVK | GRAAKTFTS [Ctrl] gave nd (0 of 6 replicates). The variant GFTLQSYGIS | VIYSDGRRTFYSDNVK | GRAAGTFDS [Ctrl] showed 0.76 (3 of 6 replicates). For GFTLNSYGIS | VIYSDGRRTFYGDSVK | GRVAGTFDV [GPLM_Gen], the assay gave 1.12 (6 of 6 replicates).

The variant GFDLNSYGIS | VIYSDGRRTFYGDSVK | GKAAGTFDD [GPLM_Gen] showed 0.58 (6 of 6 replicates).

Picked from the list: the 8 lowest averages where every replicate gave a value.

The variant GFDLNEYGIS | VIYADGRRTFYADSVK | GKAAGTFDL [En_HC] showed -0.47 (6 of 6 replicates).
The variant GFELNSYGIS | VIYSDGRRTFYADSVK | GKAAGTFDA [GPLM_Gibbs] showed -0.14 (6 of 6 replicates).
The variant GFSLNDYGIS | VIYSDGRRTAYGDSVK | GRAAGTFDL [Ctrl] showed -0.09 (6 of 6 replicates).
The variant GFELNEYGIS | VIYSDGRRTFYGDSVK | GKTAGTFDK [GP_Gen] showed -0.09 (6 of 6 replicates).
The variant GFTLNSYGIS | VIYSDGRRTFYGDSVK | GHEAGTFDS [GPLM_Gibbs] showed 0.09 (6 of 6 replicates).
The variant GFNLNSYGIS | VIYSDGRRTFYADSVK | GREAGTFDS [GPLM_Gen] showed 0.13 (6 of 6 replicates).
The variant GFTLNSYGIS | VIYSDGRRTFYDDSVK | GLTAGTFDS [GP_HC] showed 0.16 (6 of 6 replicates).
The variant GFTLESYGIS | VIYSDGQRTFYADSVK | GRVAGTFDS [GP_Gibbs] showed 0.17 (6 of 6 replicates).